From ChEMBL document CHEMBL1140336, “Synthesis, structure-activity relationships, and biological evaluation of fatty alcohol phosphates as lysophosphatidic acid receptor ligands, activators of PPARgamma, and inhibitors of autotaxin” (J Med Chem, 2005)

The chains behind the UniProt entries cited, without tags or fusion partners. Where a name states a change or a piece, a line headed by the entry shows the natural chain unless it says otherwise.
UniProt Q92633: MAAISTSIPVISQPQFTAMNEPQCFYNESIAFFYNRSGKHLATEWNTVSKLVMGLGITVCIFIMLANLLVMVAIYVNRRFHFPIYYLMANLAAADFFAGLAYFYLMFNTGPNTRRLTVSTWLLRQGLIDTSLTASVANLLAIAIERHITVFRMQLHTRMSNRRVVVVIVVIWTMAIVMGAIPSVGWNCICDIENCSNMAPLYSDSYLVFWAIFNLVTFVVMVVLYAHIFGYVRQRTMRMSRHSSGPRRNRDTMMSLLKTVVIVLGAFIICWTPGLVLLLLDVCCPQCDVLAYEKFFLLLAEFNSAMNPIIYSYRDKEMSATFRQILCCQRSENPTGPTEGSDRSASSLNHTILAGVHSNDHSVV

Target: Lysophosphatidic acid receptor 1 (Homo sapiens, UniProt Q92633)
Assay: Maximal efficacy in induction of [Ca2+] transients in RH7777 rat hepatoma cells expressing LPA1 receptor
Type: functional, cell-based
Procedure, shortened: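 Agonist mode in RH7777 cells stably expressing the named LPA receptor, serum-starved 6-8 h, Fura-2 AM loaded. Increasing compound concentrations were added alone and the Ca2+ transient was read as the 340/380 ratio peak minus baseline. Emax = compound maximal response as a percentage of the LPA 18:1 maximal response.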

With `CCCCCCCC/C=C/CCCCCCCCOP(O)(O)=S` as the compound, how does the Emax read?
The Emax was 80%.
